From US20090092553A1, “MONOCARBOXYLATE TRANSPORTERS EXPRESSED IN CANCER CELLS” (Xenoport,Inc., priority 2003, published 2009)

How the values were obtained:
[1] = test system: KB human oral epidermoid carcinoma cell line; test: Alamar blue cytotoxicity assay, KB cells; conditions: 48 hour treatment
Experimental: (§1) . HT29, KB, LoVo, and PC3 cells were seeded on UV sterilized, black, clear-bottom 96-well plates at approximately ten thousand cells per well. The cells were allowed to adhere overnight at 37° C., 5% CO2 in a humidified environment in the following media: for HT-29 cells, RPMI 1640 with 25 mM HEPES and 2 mM L-glutamine, supplemented with 5% FBS, 2 mM L-glutamine, and Pen/Strep/Fungizone; for LoVo and PC-3 cells, F12K supplemented with 10% FBS, 2 mM L-glutamine and Pen/Strep/Fungizone; and for KB cells, a 1:1 mixture of HYQ SFM4HEK293 (Hyclone):RPMI 1640 with 25 mM HEPES and 2 mM L-glutamine, supplemented with 2.5% FBS, 2 mM L-glutamine and Pen/Strep/Fungizone. […] . In addition, each plate contained a row of positive controls, a row of media only controls, and a row of negative controls in which 100% DMSO was added. The positive control for cytotoxicity was chlorambucil. The positive controls for transport were lactic acid and thiophene glyoxylic acid. After the compounds and controls were added to the cells, the plates were returned to the cell culture incubators. After 48 hours, 10 μl Alamar blue was added to each well. Fluorescence of each well was read six hours after adding the Alamar blue. The percentage of live cells was calculated for each well by the following formula: {FluorWell−FluorNegControl)/FluorPosControl−FluorNegControl)}*100.

[2] = test system: LoVo human colorectal cancer cell line; test: Alamar blue cytotoxicity assay, LoVo cells; conditions: 48 hour treatment
Experimental: as §1

[3] = test system: HT29 human colon carcinoma cell line; test: Alamar blue cytotoxicity assay, HT29 cells; conditions: HT29, 48 hour treatment
Experimental: as §1

## O=C(O)CON(CCCl)CCCl
[1]
  GI50: 102 µM
[2]
  GI50: 30 µM
[3]
  GI50: 116 µM
